The list shows a part of the results, in another mix than the full data. Some of these compounds have results that are not shown, active ones among them. Active and inactive are the calls of the source.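 The calls were made as follows: active = compounds whose percent inhibition of the receptor-coactivator binding signal exceeds about 50% in the single-dose screen (limit read from the data); inactive = the rest.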
molecular target: Estrogen receptor beta (Homo sapiens) (UniProt Q92731); assay: blockers of coactivator peptide binding to ERβ – biochemical, TR-FRET, ERβ LBD, SRC-1 peptide, primary screen (AID 633); conditions: TR-FRET ER-beta LBD / SRC1-Cy5 peptide binding; at 25.6 µM; active compounds read high;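 also: 0% = receptor plus peptide wells without compound and 100% = peptide-only wells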

Sequences of proteins named here, by UniProt entry; tags and fusion partners are left off.
UniProt Q92731, whole entry: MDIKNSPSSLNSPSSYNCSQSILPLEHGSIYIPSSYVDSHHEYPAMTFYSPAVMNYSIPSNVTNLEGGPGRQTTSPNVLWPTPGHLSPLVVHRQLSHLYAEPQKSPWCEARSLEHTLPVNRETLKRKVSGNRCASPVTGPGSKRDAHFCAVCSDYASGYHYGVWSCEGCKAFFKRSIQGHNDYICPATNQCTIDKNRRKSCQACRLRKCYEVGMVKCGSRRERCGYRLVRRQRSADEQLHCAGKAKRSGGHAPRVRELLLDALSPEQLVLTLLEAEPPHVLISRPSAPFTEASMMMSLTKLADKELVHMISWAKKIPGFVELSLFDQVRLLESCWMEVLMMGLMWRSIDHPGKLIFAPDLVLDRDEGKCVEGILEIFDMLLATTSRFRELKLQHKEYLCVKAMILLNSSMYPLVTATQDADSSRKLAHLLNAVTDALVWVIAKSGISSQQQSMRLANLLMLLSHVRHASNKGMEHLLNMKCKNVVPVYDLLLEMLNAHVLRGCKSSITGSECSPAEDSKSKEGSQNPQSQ

| SMILES | inhibition |
| --- | --- |
| CN(C)c1cccc(C(=O)NCC2(N(C)C)CCCCC2)c1 | inactive: -7.76% |
| O=C(OC1CN2CCC1CC2)C(CO)(c1ccccc1)c1ccccc1 (configuration not stated) | inactive: -11.9% |

From PubChem BioAssay AID633 (Emory University Molecular Libraries Screening Center, 2007)
